For eight compounds, IC50 results are on record in patent US12473304B2, “Heterocyclic PAD4 inhibitors” (BRISTOL-MYERS SQUIBB COMPANY, priority 2020, dated 2025).

Sequences of proteins named here, by UniProt entry; tags and fusion partners are left off.
UniProt Q9UM07, whole entry: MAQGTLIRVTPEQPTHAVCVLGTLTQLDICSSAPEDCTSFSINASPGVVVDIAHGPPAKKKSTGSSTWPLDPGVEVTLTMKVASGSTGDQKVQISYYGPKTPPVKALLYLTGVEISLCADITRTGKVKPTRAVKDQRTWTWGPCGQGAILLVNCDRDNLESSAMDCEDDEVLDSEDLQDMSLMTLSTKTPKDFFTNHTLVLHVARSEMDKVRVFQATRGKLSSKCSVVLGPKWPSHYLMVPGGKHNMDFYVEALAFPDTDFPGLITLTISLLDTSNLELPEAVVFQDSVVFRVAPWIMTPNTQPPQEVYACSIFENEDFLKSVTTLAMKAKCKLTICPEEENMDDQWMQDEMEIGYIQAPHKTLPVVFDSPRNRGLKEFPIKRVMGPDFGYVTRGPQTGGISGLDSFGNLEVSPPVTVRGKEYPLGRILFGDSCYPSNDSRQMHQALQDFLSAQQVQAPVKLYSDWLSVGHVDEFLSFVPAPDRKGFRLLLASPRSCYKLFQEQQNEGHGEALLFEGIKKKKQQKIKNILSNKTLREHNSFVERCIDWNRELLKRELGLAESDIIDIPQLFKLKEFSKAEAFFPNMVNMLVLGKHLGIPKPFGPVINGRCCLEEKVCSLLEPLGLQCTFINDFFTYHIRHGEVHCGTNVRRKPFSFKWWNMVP

The structures appear in SMILES notation.

The test concerns the target human PAD4 (hPAD4) (Homo sapiens (Human), UniProt Q9UM07). Put plainly: RFMS Human PAD4 Functional Assay 1. The settings on record: read-out: hPAD4 RFMS IC50; RFMS assay 1; 5 nM hPAD4, 250 μM BAEE substrate, 50 μM calcium, 37° C. On the procedure:
RFMS Human PAD4 Functional Assay 1:
Compounds were solubilized in 100% DMSO to achieve all) mM compound concentration. Compound stock solutions were stored at RT. A series of dilutions were prepared in DMSO and mixed 8 times with 20 μL mixing volume. Final top concentration of compound in the assay is 50 μM. Final assay conditions were as follows: • Reaction volume: 26 μl • Assay buffer: 25 mM hepes, pH 7.5, 5 mM NaCl, 1 mM DTT, 0.2 mg/ml BSA, 0.01% CHAPS, 50 μM Calcium, and 5 μM TPEN • Final concentrations: 5 nM hPAD4 enzyme, 250 μM BASE, and 0.5% DMSO • Total incubation time: 30 mins compound and enzyme preincubation at 37° C., 90 min enzyme/substrate reaction, 30 min reaction with phenyl glyoxal at 37° C. • Stop solution: 40 μl 5% TCA in ACN
0.13 μL of compound solution was added to 13 μL of 10 nM PAD4 in assay buffer. After 30 min 13 μl of 500 μM of BAEE was added in 25 mM hepes, pH 7.5, 5 mM NaCl, 1 mM DTT, 0.2 mg/ml BSA, 0.01% CHAPS, 50 μM Calcium, 5 μM TPEN was added and the reaction incubated for 90 min at 37° C. The enzymatic reaction was quenched by addition of 15 μl of 6.1N TCA, 100% Final Concentration is 20%, 35 μl of 8.5 mM phenyl glyoxal (final concentration 4 mM) is then added and the reaction is incubated for 30 min at 37° C.
After 30 minutes the plates are spun down to remove all precipitate. The enzyme reaction was quenched with an equal volume of methanol containing internal standard (modified citrulline). Samples were loaded onto the Rapid Fire RF300 system (Agilent) wherein they were first sipped for 1000 ms and then directly loaded to a C18 separations cartridge using a mixture of acetonitrile containing 0.01% formic acid for 3000 ms desalting. The flow rate of the mobile phase was 1.5 ml/min. Once the samples were eluted from the cartridge, a mobile phase of acetonitrile containing 0.01% formic acid was used to move the samples into the mass spectrometer for 4000 ms at a flow rate of 1.25 ml/min/Sciex API5500 triple quadrupole mass spectrometer (Applied Biosystems) equipped with ESI was used to analyze the peptidyl citrulline and internal standard ions.
MRM transition of product and internal standard were monitored at m/z 424.5 to 350.4 and m/z 293 to 247 respectively. The dwell time for each transition was set at 200 ms, and the ESI voltage was used at 5500 with a source temperature of 400° C. Extracted ion peaks for each transition were integrated using the Rapid Fire Integrator software. Peak area of analyte was normalized with internal standard.).

Broadly, the IC50 is the concentration needed to halve the response being measured. With `Cc1c(-c2cc3ccc(-c4ccc(C(N)=O)c(Cl)c4)cc3n2CC2CC2)nn2cc(C(=O)N3CC4CCC3[C@@H]4N)ccc12` (some centres unmarked), the IC50 was 30 nM.

Consider `COc1cc(C(=O)N2C[C@H](N)C[C@@H](F)C2)cn2nc(-c3cc4ccc(N5CCC(S(C)(=O)=O)CC5)cc4n3CC3CC3)c(C)c12`, for which the IC50 turned out to be 20 nM.

`COc1cc(C(=O)N2C[C@H](N)C[C@@H](F)C2)cn2nc(-c3cc4cccc(C5CN(C(C)=O)C5)c4n3CC3CC3)c(C)c12`: the IC50 is 15000 nM.

In the case of `CNC(=O)c1ccc(-c2ccc3cc(-c4nn5cc(C(=O)N6CC7CCC6[C@@H]7N)ccc5c4C)n(CC4CC4)c3c2)cn1` (some centres unmarked), the IC50 stood at 80 nM.

Turning to `Cc1c(-c2cc3ccc(-c4ccc5c(c4)CNC5=O)cc3n2CC2CC2)nn2cc(C(=O)N3CC4CCC3[C@@H]4N)cc(F)c12` (some centres unmarked), the IC50 was 80 nM.

With `Cc1c(-c2cc3ccc(-c4cn[nH]c4)cc3n2CC2CC2)nn2cc(C(=O)N3CC4CCC3[C@@H]4N)ccc12` (some centres unmarked), the IC50 was found to be 40 nM.

As to `COc1cc(C(=O)N2CCC[C@@H](N)C2)cn2nc(-c3cc4cccc(C5CN(C(C)=O)C5)c4n3CC3CC3)c(C)c12`, the IC50 was 6050 nM.

For `Cc1c(-c2cc3ccc(-c4ccc5[nH]ccc5c4)cc3n2CC2CC2)nn2cc(C(=O)N3C[C@H](N)C[C@@H](F)C3)ccc12`, the 50% inhibitory concentration (IC50) turned out to be 2840 nM.
